IC50 data for one molecule are collected here from ChEMBL document CHEMBL3400096, “6,7-Dihydrobenzo[f]benzo[4,5]imidazo[1,2-d][1,4]oxazepine derivatives as selective inhibitors of PI3Kα” (Bioorg Med Chem, 2015).

Sequences of proteins named here, by UniProt entry; tags and fusion partners are left off. A change or cut given only in a name is not applied to a line headed by its entry.
UniProt P42338: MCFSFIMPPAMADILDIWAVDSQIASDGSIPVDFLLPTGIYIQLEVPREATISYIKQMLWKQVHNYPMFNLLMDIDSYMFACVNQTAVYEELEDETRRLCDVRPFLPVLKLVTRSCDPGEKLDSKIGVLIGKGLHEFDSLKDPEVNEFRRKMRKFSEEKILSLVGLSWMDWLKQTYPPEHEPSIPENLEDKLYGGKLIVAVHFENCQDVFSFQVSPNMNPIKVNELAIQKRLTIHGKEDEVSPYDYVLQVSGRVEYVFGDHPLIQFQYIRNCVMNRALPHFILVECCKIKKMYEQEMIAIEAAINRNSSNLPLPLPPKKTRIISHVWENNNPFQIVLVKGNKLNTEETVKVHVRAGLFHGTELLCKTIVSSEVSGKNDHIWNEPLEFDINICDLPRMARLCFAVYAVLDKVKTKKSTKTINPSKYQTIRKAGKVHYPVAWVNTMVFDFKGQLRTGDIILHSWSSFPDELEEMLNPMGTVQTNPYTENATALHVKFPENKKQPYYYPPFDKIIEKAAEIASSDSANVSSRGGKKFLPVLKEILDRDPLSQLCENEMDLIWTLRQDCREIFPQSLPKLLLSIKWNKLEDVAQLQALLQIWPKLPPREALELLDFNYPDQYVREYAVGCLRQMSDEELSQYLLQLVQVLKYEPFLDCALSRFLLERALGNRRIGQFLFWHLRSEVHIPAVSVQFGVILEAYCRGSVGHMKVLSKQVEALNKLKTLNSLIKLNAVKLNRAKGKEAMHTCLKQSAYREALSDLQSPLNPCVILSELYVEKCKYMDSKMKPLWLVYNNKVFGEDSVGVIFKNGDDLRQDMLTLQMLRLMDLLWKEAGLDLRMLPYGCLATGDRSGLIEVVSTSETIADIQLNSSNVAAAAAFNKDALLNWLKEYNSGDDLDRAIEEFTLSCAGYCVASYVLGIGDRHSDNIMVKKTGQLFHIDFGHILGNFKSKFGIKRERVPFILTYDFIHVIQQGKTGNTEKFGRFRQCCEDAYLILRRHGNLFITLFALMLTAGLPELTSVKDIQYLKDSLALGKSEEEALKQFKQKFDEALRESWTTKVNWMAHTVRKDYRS
UniProt P48736: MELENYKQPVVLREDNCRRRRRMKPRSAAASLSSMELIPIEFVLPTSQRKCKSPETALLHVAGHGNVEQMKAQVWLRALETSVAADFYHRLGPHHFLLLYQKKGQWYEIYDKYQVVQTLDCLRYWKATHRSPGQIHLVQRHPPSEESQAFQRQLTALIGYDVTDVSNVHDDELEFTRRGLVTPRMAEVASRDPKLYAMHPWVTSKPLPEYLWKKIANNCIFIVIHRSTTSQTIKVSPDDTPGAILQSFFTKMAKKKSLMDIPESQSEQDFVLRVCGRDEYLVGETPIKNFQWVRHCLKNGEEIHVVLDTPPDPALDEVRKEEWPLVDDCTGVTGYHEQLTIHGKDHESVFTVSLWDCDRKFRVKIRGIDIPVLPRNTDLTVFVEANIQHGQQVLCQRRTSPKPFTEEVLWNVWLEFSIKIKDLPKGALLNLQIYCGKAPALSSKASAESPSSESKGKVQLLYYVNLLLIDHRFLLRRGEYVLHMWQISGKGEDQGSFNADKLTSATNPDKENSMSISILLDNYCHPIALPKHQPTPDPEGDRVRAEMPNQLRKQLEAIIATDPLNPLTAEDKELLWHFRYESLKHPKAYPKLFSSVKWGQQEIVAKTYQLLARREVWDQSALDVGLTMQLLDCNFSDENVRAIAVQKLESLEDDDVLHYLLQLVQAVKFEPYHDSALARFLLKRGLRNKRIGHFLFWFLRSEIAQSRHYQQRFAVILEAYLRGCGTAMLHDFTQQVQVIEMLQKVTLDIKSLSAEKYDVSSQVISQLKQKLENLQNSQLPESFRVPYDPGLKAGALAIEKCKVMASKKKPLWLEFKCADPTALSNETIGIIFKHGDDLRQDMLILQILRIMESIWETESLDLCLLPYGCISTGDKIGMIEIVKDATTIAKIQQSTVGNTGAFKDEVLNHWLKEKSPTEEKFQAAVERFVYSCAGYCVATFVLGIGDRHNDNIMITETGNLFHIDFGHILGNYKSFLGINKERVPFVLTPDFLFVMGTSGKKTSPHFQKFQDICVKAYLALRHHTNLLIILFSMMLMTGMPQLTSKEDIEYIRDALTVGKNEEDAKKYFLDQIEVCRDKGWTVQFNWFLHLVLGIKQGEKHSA

The structures appear in SMILES notation.

As usually defined, the IC50 is the concentration that gives 50% inhibition.

For experiment [1], the target named is Phosphatidylinositol 4,5-bisphosphate 3-kinase catalytic subunit beta isoform (Homo sapiens, UniProt P42338). In words: Inhibition of recombinant PI3Kbeta (unknown origin) […] after 3 hrs incubation by competitive fluorescence polarization kinase activity assay. (Fluorescence polarisation rises when a labelled molecule tumbles more slowly, as on binding a larger partner.)

The target of experiment [2] is Phosphatidylinositol 4,5-bisphosphate 3-kinase catalytic subunit gamma isoform (Homo sapiens, UniProt P48736). In words: Inhibition of recombinant PI3Kgamma (unknown origin) using […] as substrate after 3 hrs incubation by competitive fluorescence polarization kinase activity assay.

Regarding `O=c1cc(N2CCOCC2)oc2c(-c3ccccc3)cccc12` [LY-294002], the IC50 in experiment [1] worked out at 983 nM; in experiment [2], 947 nM.
